{"source": "ChEMBL document CHEMBL5154675", "about": "“Design, Synthesis, and Biological Evaluation of 1-(Indolizin-3-yl)ethan-1-ones as CBP Bromodomain Inhibitors for the Treatment of Prostate Cancer” (J Med Chem, 2022)", "test": "Apparent permeability across basolateral to apical side in human Caco-2 cells at 10 uM measured after 2 hrs by LC-MS/MS analysis", "assay_type": "ADME, cell-based"}
{"compound": "C[C@H]1O[C@@H](O[C@H]2[C@@H](O)C[C@H](O[C@H]3[C@@H](O)C[C@H](O[C@H]4CC[C@@]5(C)[C@H](CC[C@@H]6[C@@H]5C[C@@H](O)[C@]5(C)[C@@H](C7=CC(=O)OC7)CC[C@]65O)C4)O[C@@H]3C)O[C@@H]2C)C[C@H](O)[C@@H]1O", "note": "[DIGOXIN]", "values": [{"measurement": "Papp B→A at 2 h, 10 µM", "value": 13.9, "unit": "×10⁻⁶ cm/s"}]}
